Drawing on PubChem BioAssay AID463165 (Johns Hopkins Ion Channel Center, 2010), this text covers outcome for 86 molecules.

Amino acid sequences for entries named in this document (tags omitted).
UniProt P49798, whole entry: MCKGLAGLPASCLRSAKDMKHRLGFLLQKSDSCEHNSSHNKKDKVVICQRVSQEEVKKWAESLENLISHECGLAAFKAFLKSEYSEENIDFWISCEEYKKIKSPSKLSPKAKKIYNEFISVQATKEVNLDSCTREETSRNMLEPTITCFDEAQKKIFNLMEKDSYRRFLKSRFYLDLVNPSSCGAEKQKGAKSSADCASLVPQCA

This is a selection; strong and weak results do not stand in their true shares. Activity calls are given as the source filed them.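 The calls were made as follows: active = B-score, a plate-corrected calcium signal, over three deviations above library mean, with baseline fluorescence within five deviations of library mean; inactive = the rest.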

The target in the test is Regulator of G-protein signaling 4 (Homo sapiens) (UniProt P49798). Kind of test: blockers of RGS4 function in M3R calcium signaling – cell-based, HEK293 M3R inducible RGS4, calcium flux, primary screen (AID 463165).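 Also: RGS4 expression induced by doxycycline in cells with stable M3 receptor.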 The note with it: Fluo-4 calcium flux, at 10 µM, triggered by carbachol at its EC20. (Calcium assays in cells follow changes in intracellular calcium, usually with a dye or a luminescent sensor.)
Regarding `CCOP1(=S)c2c(C)nn(CCC#N)c2N=C(c2ccc(F)cc2)N1C` (stereo unspecified), the outcome was inactive. For `N#CCCN(C(=O)COC(=O)C(O)(c1ccccc1)c1ccccc1)c1ccc(F)cc1` the value was “inactive”; for `NC(=O)Nc1ccc([As](=O)(O)O)cc1`, “inactive”; for `O=C(/C=C/c1ccccc1)OC1CN2CCC1CC2` (stereo unspecified), “inactive”. Under `CCOC(=O)C(CC)C1=NC(C)(C)Cc2ccccc21.O=[N+]([O-])c1cc([N+](=O)[O-])c(O)c([N+](=O)[O-])c1` (stereo unspecified) stands “inactive”; under `O=[N+]([O-])c1cc([N+](=O)[O-])c(Nc2nnnn2CCO)c([N+](=O)[O-])c1`, “inactive”. Under `CN(C)C1(CNC(=O)c2ccc(S(C)(=O)=O)cc2)CCCCC1` stands “inactive”; under `COc1cc(C2NCCC3(OCCO3)C2(C)C)cc(OC)c1OC.O=[N+]([O-])c1cc([N+](=O)[O-])c(O)c([N+](=O)[O-])c1` (stereo unspecified), “inactive”.

As to `Cc1ccc(C(=O)OC2CN3CCC2CC3)cc1` (stereo unspecified), the outcome was inactive. As to `CC1CCC(C(C)C)C(OP(=O)(Nc2ccccn2)c2ccccc2)C1` (stereo unspecified), the result was inactive. Turning to `Cc1nn(-c2ccccc2)c2c1P(=O)(N1CCOCC1)N(C)C(c1ccccc1)=N2` (stereo unspecified), the result was inactive. For `O=P1(Nc2ccc(Br)cn2)COc2ccccc2OC1` the value was “inactive”; for `O=[As](O)(c1cccs1)c1cccs1`, “inactive”; for `Cc1ccc(OCC(=O)OC2CN3CCC2CC3)cc1` (stereo unspecified), “inactive”. Consider `CP(=O)(Nc1ccc(SC(F)(F)F)cc1)Oc1ccccc1` (stereo unspecified), for which the result was inactive. Turning to `Nc1cccc([As](=O)(O)c2ccccc2)c1`, the result was inactive.

As for `CCCOc1ccc(NP(C)(=O)Oc2ccc(Cl)cc2)cc1` (stereo unspecified), the outcome was inactive. As to `O=P1(Nc2ncccn2)COc2ccccc2OC1`, the result was inactive. For the molecule `CN1CCCCC1COC(=O)C1(O)c2ccccc2CCc2ccccc21` (stereo unspecified), the outcome was inactive. `COc1ccccc1OP(C)(=O)Nc1c(C)cccc1C` (stereo unspecified): the outcome was inactive.

In the case of `CC(C)(C)C(=O)NC(Sc1ncccn1)C(Cl)(Cl)Cl` (stereo unspecified), the result was inactive. For `Clc1n[nH]nc1-c1nn[nH][15n]1` the value was “inactive”. Take `CN(CCCl)Cc1cc(Cl)c(NC2=NCCN2)c(Cl)c1`: the result was inactive.

In the case of `CCOP(=O)(Nc1ccc(C)cn1)OCC`, the result was inactive. For `CCOP(=O)(NC(=NC(C)c1ccccc1)NC(C)c1ccccc1)OCC` (stereo unspecified) the value was “inactive”. Under `O=[N+]([O-])c1cc([N+](=O)[O-])c(-n2nnc3ccccc32)c([N+](=O)[O-])c1` stands “inactive”; under `CCC1=CC2Cc3nc4ccc(Cl)cc4c(N)c3C(C1)C2` (stereo unspecified), “inactive”. As for `O=P1(Nc2ccccn2)COc2ccccc2OC1`, the outcome was inactive. For `CC1(CBr)Cn2c(nc3ccccc3c2=O)S1` (stereo unspecified) the value was “inactive”. For `O=[As](O)(c1ccccc1Br)c1ccccc1Br` the value was “inactive”; for `CN(C(=O)Cc1ccc(Cl)c(Cl)c1)[C@@H]1CCCC[C@H]1N1CCCC1`, “inactive”.

Consider `CC(C)/C=N\N=C(\N)N[N+](=O)[O-]`, for which the outcome was inactive. With `COc1ccccc1CNC(=O)COC(=O)C(O)(c1ccccc1)c1ccccc1`, the outcome was inactive. For `O=[N+]([O-])c1cc([N+](=O)[O-])c(-c2cnn(-c3ccccc3)c2)c([N+](=O)[O-])c1` the value was “inactive”; for `Cc1cc(C)cc(OP(C)(=O)Nc2ccc(SC(F)(F)F)cc2)c1` (stereo unspecified), “inactive”. For `O=C(Nc1ccncc1[N+](=O)[O-])c1ccc([N+](=O)[O-])cc1[N+](=O)[O-]` the value was “inactive”; for `CCc1ccc(OP(C)(=O)N2CCN(c3ccc([N+](=O)[O-])cc3)CC2)cc1` (stereo unspecified), “inactive”. For `CP(=O)(NC(=O)Nc1ccccc1)Oc1ccccc1` (stereo unspecified) the value was “inactive”; for `O=C(COc1ccccc1)OC1CN2CCC1CC2` (stereo unspecified), “inactive”; for `CP(=O)(Oc1ccccc1)OC(c1ccccc1)C(F)(F)F` (stereo unspecified), “inactive”.

In the case of `CP(=O)(Nc1ccc(SC(F)(F)F)cc1)Oc1ccc(Cl)cc1` (stereo unspecified), the outcome was inactive. `Cc1cccc(C)c1OP(C)(=O)Nc1ccc(SC(F)(F)F)cc1` (stereo unspecified): the result was inactive. On to `COP1(=S)c2c(C)nn(CCC#N)c2N=C(c2ccc(F)cc2)N1C` (stereo unspecified), for which the result was inactive.

Consider `CP(=O)(Nc1ccccn1)Oc1ccc(Cl)cc1` (stereo unspecified), for which the result was inactive.

`CCC(C)N(CC(C)C)C(=S)SC(NC(C)=O)C(Cl)(Cl)Cl` (stereo unspecified): the outcome was inactive. In the case of `O=[N+]([O-])c1cc([N+](=O)[O-])c(O)c([N+](=O)[O-])c1.c1ccc(Oc2ccncc2)cc1`, the outcome was inactive. For `CCOC(=O)c1ccc(NP(C)(=O)Oc2ccc(OC)cc2)cc1` (stereo unspecified) the value was “inactive”; for `CCOC(=O)c1ccc(NC(=O)C(C)(CCl)SC)cc1` (stereo unspecified), “inactive”. Under `O=C(OC1CN2CCC1CC2)c1cccc([N+](=O)[O-])c1` (stereo unspecified) stands “inactive”.

In the case of `CCOP(C)(=S)SCC(=O)NC(C)C(=O)O` (stereo unspecified), the result was inactive. Under `Cc1cc(SC(NC(=O)c2ccccc2)C(Cl)(Cl)Cl)nc(C(C)C)n1` (stereo unspecified) stands “inactive”; under `CCCCOc1ccc(C(=O)NCC2(N3CCCCC3)CCCCC2)cc1OC`, “inactive”. Under `CCOC(=O)Nc1ccc([As](=O)(O)O)c(O)c1` stands “inactive”; under `O=[N+]([O-])c1ccc(Nc2ccc(Oc3ccc([N+](=O)[O-])cc3[N+](=O)[O-])cc2)c([N+](=O)[O-])c1`, “inactive”.

For `CP(=O)(Nc1ccccc1Br)Oc1ccccc1` (stereo unspecified), the result was inactive.

Take `COc1ccccc1OP(C)(=O)Nc1ccccc1` (stereo unspecified): the outcome was inactive. Turning to `Cc1cc(SC(NC=O)C(Cl)(Cl)Cl)ncn1` (stereo unspecified), the outcome was inactive. For `O=P(Nc1ccccn1)(c1cccc2ccccc12)c1cccc2ccccc12` the value was “inactive”; for `CCOC(=O)Nc1cccc([As](=O)(O)O)c1`, “inactive”. For `CP(=S)(Nn1cnnc1)Oc1ccccc1` (stereo unspecified) the value was “inactive”; for `Cc1ccc2nc3c(c(C)c2c1)CC(C(Cl)Cl)S3` (stereo unspecified), “inactive”; for `O=[N+]([O-])c1ccc2c(c1)C=Nc1ccccc1O2`, “inactive”. For `Cc1cccc(C)c1OP(C)(N)=O` (stereo unspecified) the value was “inactive”. Regarding `CC(C)(C)c1ccc(OP(C)(=O)Nc2ccc(SC(F)(F)F)cc2)cc1` (stereo unspecified), the outcome was inactive. As for `Cc1ccc(OP(=O)(Nc2ccc([N+](=O)[O-])cn2)Oc2ccc(C)cc2)cc1`, the result was inactive.

`O=[As](O)(c1ccc(O)cc1)c1ccccc1O`: the result was inactive. `C[As](=O)(O)c1cccc(C(=O)O)c1`: the result was inactive. Under `O=[N+]([O-])c1cc([N+](=O)[O-])c(Nc2cccnc2)c([N+](=O)[O-])c1` stands “inactive”; under `Cc1cc(C)cc(OP(C)(N)=O)c1` (stereo unspecified), “inactive”; under `O=[N+]([O-])c1cc([N+](=O)[O-])c(-c2ccn[nH]2)s1`, “inactive”.

In the case of `COc1ccc(OP(C)(=O)Nc2cccc(F)c2)cc1` (stereo unspecified), the result was inactive. For `CCN(CC)C(=S)SC(NC=O)C(Cl)(Cl)Cl` (stereo unspecified) the value was “inactive”; for `CC(C)NC(=O)NP(=O)(Oc1ccccc1)Oc1ccccc1`, “inactive”; for `COc1ccccc1OP(C)(=O)Nc1cc(Cl)ccc1C` (stereo unspecified), “inactive”. Under `CC(C)c1ccc(OP(=O)(Nc2ccccn2)Oc2ccccc2F)cc1` (stereo unspecified) stands “inactive”. Under `Cc1ccc(NP(C)(=O)Oc2ccccc2)c(C)c1` (stereo unspecified) stands “inactive”; under `COc1ccccc1OP(C)(=O)Nc1ccc(C)cc1` (stereo unspecified), “inactive”; under `ClCCSc1nnc(-c2cccnc2)o1`, “inactive”. As for `CCOC(=O)c1ccc(NP(C)(=O)Oc2ccccc2)cc1` (stereo unspecified), the result was inactive.

For `COc1cc(I)ccc1[As](=O)(O)O`, the outcome was inactive. In the case of `COc1ccc2nc(NP(=O)(c3ccccc3)c3ccccc3)sc2c1`, the outcome was inactive. For `CCN(CC)CCCOC(=O)C(O)(c1ccccc1)c1ccccc1` the value was “inactive”; for `Cc1cc(=O)[nH]c(N[N+](=O)[O-])n1`, “inactive”; for `O=C(OC1CN2CCC1CC2)C12CC3CC(CC(C3)C1)C2` (stereo unspecified), “inactive”. Under `Cc1c2c(nc3ccccc13)SC(C(Cl)Cl)C2` (stereo unspecified) stands “inactive”; under `COc1ccc(N/C(=N/P(=O)(N2CCOCC2)N2CCOCC2)N2CCOCC2)cc1`, “inactive”.
